{"source": "patent US20260000700A1", "about": "“TARGETED LINEAR CONJUGATES COMPRISING POLYETHYLENEIMINE AND POLYETHYLENE GLYCOL AND POLYPLEXES COMPRISING THE SAME” (TARGIMMUNE THERAPEUTICS AG, priority 2022, published 2026)", "key": {"[1]": {"experiment": "Polyplex size distribution and PDI by DLS", "format": "physicochemical", "conditions": "pH 7.2"}, "[2]": {"experiment": "Polyplex ζ-potential (PALS/ELS)", "format": "physicochemical", "conditions": "pH 7.2"}}, "data": [{"substance": "Me-LPEI−/−[N3:DBCO]-PEG36-DUPA [Me-LPEI-l-[N3:DBCO]-PEG36-DUPA]", "values": [{"measurement": "DLS (nm), DTS1070", "setting": "[1]", "result": 140, "unit": "nm"}, {"measurement": "PDI, DTS1070", "setting": "[1]", "result": 0.132}, {"measurement": "ζ- pot (mV), DTS1070", "setting": "[2]", "result": 28.2, "unit": "mV"}]}]}
